Data published in ChEMBL document CHEMBL5154704 (Bioorg Med Chem, 2022).

Amino acid sequences for entries named in this document (tags omitted). A change or cut given only in a name is not applied to a line headed by its entry.
UniProt P37231: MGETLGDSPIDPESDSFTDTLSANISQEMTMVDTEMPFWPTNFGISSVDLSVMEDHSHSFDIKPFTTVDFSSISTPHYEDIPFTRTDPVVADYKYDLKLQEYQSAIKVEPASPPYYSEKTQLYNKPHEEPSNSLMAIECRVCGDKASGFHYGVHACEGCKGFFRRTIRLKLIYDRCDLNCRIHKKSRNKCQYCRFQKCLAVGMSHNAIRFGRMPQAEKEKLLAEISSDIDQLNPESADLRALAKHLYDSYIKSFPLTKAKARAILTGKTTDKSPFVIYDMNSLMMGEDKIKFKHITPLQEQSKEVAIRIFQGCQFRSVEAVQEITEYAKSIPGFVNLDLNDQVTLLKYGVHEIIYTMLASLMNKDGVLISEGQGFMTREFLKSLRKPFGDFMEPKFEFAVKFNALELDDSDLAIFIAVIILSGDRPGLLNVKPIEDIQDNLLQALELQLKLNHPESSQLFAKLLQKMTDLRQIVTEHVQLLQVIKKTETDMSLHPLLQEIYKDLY

How the values were obtained:
[1] = target: Peroxisome proliferator-activated receptor gamma (Homo sapiens) (UniProt P37231); assay: Agonist activity at pBIND tagged human PPARgamma expressed in human HEK293 cells at 10 uM incubated for 18 hrs by dual luciferase reporter assay relative to control; assay type: cell-based
[2] = target: T1, Peroxisome proliferator-activated receptor alpha (Homo sapiens) (UniProt Q07869); assay: Agonist activity at pBIND tagged human PPARalpha expressed in human HepG2 cells at 10 uM incubated for 18 hrs by dual luciferase reporter assay relative to control; assay type: cell-based
T1 sequence (whole entry): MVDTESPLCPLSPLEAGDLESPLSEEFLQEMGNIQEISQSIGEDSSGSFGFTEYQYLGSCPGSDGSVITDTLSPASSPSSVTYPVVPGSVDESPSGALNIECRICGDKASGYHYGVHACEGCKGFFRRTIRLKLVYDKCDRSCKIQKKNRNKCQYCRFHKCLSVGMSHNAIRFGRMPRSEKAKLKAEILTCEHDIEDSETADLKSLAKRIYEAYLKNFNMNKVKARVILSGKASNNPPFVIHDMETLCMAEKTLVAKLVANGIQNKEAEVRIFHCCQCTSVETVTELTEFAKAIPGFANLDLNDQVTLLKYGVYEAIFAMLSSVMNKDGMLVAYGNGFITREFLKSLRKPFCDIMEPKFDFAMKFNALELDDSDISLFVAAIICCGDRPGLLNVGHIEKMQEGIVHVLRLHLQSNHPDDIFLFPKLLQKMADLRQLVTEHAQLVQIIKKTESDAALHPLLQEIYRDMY

Activity [1]	Activity [2]	SMILES
8%	15%	Cc1ccc(OCC2CC2)cc1-c1cccc(COc2ccc(OCC(=O)O)c(F)c2)c1
8%	13%	CCOc1ccc(C)c(-c2cccc(COc3ccc(OCC(=O)O)c(F)c3)c2)c1
5%	2%	Cc1ccc(OCC2CCC2)cc1-c1cccc(COc2ccc(OCC(=O)O)c(F)c2)c1
7%	5%	CCCOc1ccc(C)c(-c2cccc(COc3ccc(OCC(=O)O)c(F)c3)c2)c1
6%	3%	Cc1ccc(OCC(C)C)cc1-c1cccc(COc2ccc(OCC(=O)O)c(F)c2)c1
12%	17%	COc1ccc(C)c(-c2cccc(COc3ccc(OCC(=O)O)c(F)c3)c2)c1

Continued, molecule first:

SMILES	Activity [1]	Activity [2]
CCOc1cccc(-c2cccc(COc3ccc(OCC(=O)O)c(F)c3)c2)c1	13%	15%
COc1ccc2cc(-c3cccc(COc4ccc(OCC(=O)O)c(F)c4)c3)ccc2c1	15%	20%
CCOc1ccc(-c2cccc(COc3ccc(OCC(=O)O)c(F)c3)c2)cc1	17%	7%
O=C(O)COc1ccc(OCc2cccc(-c3ccc(OCC4CC4)cc3)c2)cc1F	18%	15%
COc1ccc(-c2cccc(COc3ccc(OCC(=O)O)c(F)c3)c2)cc1	9%	12%
O=C(O)COc1ccc(OCc2cccc(-c3ccc4cc(OCC5CC5)ccc4c3)c2)cc1F	13%	15%
COc1cccc(-c2cccc(COc3ccc(OCC(=O)O)c(F)c3)c2)c1	18%	20%
CCOc1ccc2cc(-c3cccc(COc4ccc(OCC(=O)O)c(F)c4)c3)ccc2c1	14%	17%
O=C(O)COc1ccc(OCc2cccc(-c3cccc(OCC4CC4)c3)c2)cc1F	10%	16%
